# Experimental data reported in patent US20080045508A1, “SUBSTITUTED AMINOMETHYL BENZAMIDE COMPOUNDS” (priority 2006, published 2008).
# The chains behind the UniProt entries cited, without tags or fusion partners.
# UniProt P31652, whole entry: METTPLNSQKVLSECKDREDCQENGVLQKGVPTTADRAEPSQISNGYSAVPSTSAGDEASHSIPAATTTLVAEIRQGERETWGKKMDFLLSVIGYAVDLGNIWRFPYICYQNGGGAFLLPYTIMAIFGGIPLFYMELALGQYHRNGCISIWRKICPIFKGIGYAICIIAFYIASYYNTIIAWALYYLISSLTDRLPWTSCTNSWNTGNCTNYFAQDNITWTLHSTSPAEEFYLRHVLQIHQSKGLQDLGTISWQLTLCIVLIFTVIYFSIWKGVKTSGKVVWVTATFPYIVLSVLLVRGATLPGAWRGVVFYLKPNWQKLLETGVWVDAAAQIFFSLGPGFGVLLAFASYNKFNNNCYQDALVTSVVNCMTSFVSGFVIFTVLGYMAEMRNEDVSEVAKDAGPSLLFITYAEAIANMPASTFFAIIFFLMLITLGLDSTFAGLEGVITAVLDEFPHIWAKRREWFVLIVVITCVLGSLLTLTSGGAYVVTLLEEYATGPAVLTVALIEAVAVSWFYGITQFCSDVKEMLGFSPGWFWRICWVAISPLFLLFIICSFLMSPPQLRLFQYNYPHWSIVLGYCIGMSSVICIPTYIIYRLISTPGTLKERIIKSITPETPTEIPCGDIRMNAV
# UniProt P31645, whole entry: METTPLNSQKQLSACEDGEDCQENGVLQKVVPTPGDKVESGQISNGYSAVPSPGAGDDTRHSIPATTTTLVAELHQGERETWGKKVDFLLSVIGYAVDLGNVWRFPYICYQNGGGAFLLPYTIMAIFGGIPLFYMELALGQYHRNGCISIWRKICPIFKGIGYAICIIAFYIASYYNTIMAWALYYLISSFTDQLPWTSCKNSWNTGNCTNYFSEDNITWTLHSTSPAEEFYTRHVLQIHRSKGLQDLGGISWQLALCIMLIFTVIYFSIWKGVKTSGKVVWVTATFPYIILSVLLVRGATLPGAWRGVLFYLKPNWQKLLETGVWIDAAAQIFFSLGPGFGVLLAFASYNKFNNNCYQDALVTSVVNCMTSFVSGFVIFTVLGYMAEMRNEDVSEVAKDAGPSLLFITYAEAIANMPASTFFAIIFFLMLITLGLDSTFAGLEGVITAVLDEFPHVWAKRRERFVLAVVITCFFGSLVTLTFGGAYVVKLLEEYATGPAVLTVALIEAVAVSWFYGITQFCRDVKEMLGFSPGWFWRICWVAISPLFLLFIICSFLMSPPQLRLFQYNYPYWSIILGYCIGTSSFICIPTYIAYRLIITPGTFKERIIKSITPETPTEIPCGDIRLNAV
# Columns and labels:
# rat brain SERT = rat brain SERT (Rattus norvegicus, UniProt P31652); assay: biochemical
# [1] = biological target: human SERT (HEK293 membranes) (Homo sapiens, UniProt P31645); assay: biochemical
smiles,measurement,setting,value
"CNCc1cc(C(=O)N2CCCN(C3CC3)CC2)ccc1Oc1cccnc1 [Example 4, (4-Cyclopropyl-[1,4]diazepan-1-yl)-[3-methylaminomethyl-4-(pyridin-3-yloxy)-phenyl]-methanone]",Ki,rat brain SERT,22 nM
same,Ki,[1],120 nM
